Assay results published in article PMC12903857.
Several values for one entry are separate records, joined by “and”; a condition that tells them apart may be missing. Identical values can stand only once. Like-named read-outs stand apart in the source and are kept apart here. Non-standard residues stand in square brackets, D forms with d. Residues, ends and D or L forms follow the SMILES beside them. pS = N[C@@H](COP(=O)(O)O)C(=O)O

Target: T1, 14-3-3σ (Homo sapiens, UniProt P31947)
T1 sequence (P31947 1-248): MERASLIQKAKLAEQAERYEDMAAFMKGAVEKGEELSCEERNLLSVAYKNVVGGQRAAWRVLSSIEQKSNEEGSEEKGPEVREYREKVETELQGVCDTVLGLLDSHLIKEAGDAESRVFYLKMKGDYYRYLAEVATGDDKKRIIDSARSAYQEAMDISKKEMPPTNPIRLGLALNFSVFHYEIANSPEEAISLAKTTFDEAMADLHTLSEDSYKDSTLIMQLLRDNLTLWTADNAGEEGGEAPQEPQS
Assay: SPR, binary interaction of 12-mer RAF peptides
Details: for kd, single replicates: binary, kinetic fit, Replicate 1 and 2; for koff: read-out: kd / koff, Average ± SD, binary, kinetic fit, n = 2

[1] = read-out: ka / kon, Average ± SD, binary, kinetic fit, n = 2
[2] = read-out: ka, single replicates, binary, kinetic fit, Replicate 1 and 2

CC[C@H](C)[C@H](NC(=O)[C@H](CCCNC(=N)N)NC(C)=O)C(=O)N[C@@H](CCCNC(=N)N)C(=O)N[C@@H](CO)C(=O)N[C@H](C(=O)N[C@@H](COP(=O)(O)O)C(=O)N[C@H](C(=O)N1CCC[C@H]1C(=O)N[C@@H](CC(N)=O)C(=O)N[C@H](C(=O)N[C@@H](Cc1c[nH]cn1)C(=O)N[C@@H](CCSC)C(N)=O)C(C)C)[C@@H](C)O)[C@@H](C)O [A-RAF (12-mer), RIRST{pS}TPNVHM] (Ac-RIRST[pS]TPNVHM-NH2; N-terminus and C-terminus assumed)
kd, single replicates: 0.2444 s⁻¹ and 0.2914 s⁻¹ | kon [1]: 130000 M⁻¹ s⁻¹ | koff: 0.268 s⁻¹

CC[C@H](C)[C@H](NC(=O)[C@H](Cc1c[nH]cn1)NC(=O)[C@@H](NC(=O)[C@H](CC(N)=O)NC(=O)[C@@H]1CCCN1C(=O)[C@H](C)NC(=O)[C@H](COP(=O)(O)O)NC(=O)[C@H](CO)NC(=O)[C@H](CO)NC(=O)[C@H](CCCNC(=N)N)NC(=O)[C@H](CC(=O)O)NC(=O)[C@H](CCCNC(=N)N)NC(C)=O)C(C)C)C(N)=O [B-RAF (12-mer), RDRSS{pS}APNVHI] (Ac-RDRSS[pS]APNVHI-NH2; N-terminus and C-terminus assumed)
kd, single replicates: 0.3206 s⁻¹ and 0.2998 s⁻¹ | kon [1]: 110000 M⁻¹ s⁻¹ | kon [2]: 121000 M⁻¹ s⁻¹ | koff: 0.31 s⁻¹

CSCC[C@H](NC(=O)[C@H](Cc1c[nH]cn1)NC(=O)[C@@H](NC(=O)[C@H](CC(N)=O)NC(=O)[C@@H]1CCCN1C(=O)[C@@H](NC(=O)[C@H](COP(=O)(O)O)NC(=O)[C@@H](NC(=O)[C@H](CO)NC(=O)[C@H](CCCNC(=N)N)NC(=O)[C@H](CCC(N)=O)NC(=O)[C@H](CCCNC(=N)N)NC(C)=O)[C@@H](C)O)[C@@H](C)O)C(C)C)C(N)=O [C-RAF (12-mer), RQRST{pS}TPNVHM] (Ac-RQRST[pS]TPNVHM-NH2; N-terminus and C-terminus assumed)
kd, single replicates: 0.3201 s⁻¹ and 0.3835 s⁻¹ | kon [1]: 140000 M⁻¹ s⁻¹ | kon [2]: 114000 M⁻¹ s⁻¹
